Test results: patent publication US20260008754A1, “N-SUBSTITUTED DERIVATIVES OF L-(L-PHENYL-3-ARYL)-LFF-PYRAZOL-4-YL)[…], METHOD FOR THEIR PRODUCTION AND THEIR APPLICATIONS” (priority 2022, published 2026)

Protein sequences, listed by entry. Tags and fused reporters are not part of them.
UniProt P35372, whole entry: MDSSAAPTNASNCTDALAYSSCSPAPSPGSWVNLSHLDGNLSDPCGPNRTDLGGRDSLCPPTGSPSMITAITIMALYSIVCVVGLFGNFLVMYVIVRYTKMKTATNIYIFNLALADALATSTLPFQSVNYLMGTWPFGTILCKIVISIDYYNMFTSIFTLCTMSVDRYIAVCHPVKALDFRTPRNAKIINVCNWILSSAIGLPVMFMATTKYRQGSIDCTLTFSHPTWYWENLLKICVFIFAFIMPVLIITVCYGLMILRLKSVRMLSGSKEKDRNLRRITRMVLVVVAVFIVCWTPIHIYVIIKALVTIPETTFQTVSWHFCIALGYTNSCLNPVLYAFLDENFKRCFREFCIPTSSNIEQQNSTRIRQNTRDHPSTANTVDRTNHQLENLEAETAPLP

Biological target: μ opioid receptor (Homo sapiens, UniProt P35372)
Assay: μ opioid receptor agonism, G protein signaling pathway
Type: cell-based
Settings: read-out: EC50 (G protein)

CN(CCc1ccnn1C)Cc1cn(-c2ccccc2)nc1-c1ccccc1
EC50: 538 nM
